Data on 1 compound can be found in patent US11788044B2, “Rheologically biomimetic fluid surrogate” (EMULATE, INC., priority 2017, dated 2023).

This assay deals with iHBMEC barrier function. The experiment in a line: iHBMEC barrier function on BBB-Chip (dextran leakage, tight junctions). The format is cell-based, human. Particulars: Puromycin selection, long-term.

For the compound `COc1ccc(C[C@H](N)C(=O)N[C@H]2[C@@H](O)[C@H](n3cnc4c(N(C)C)ncnc43)O[C@@H]2CO)cc1` [Puromycin], the “barrier maintenance or robustness” value is listed as “does not seem to contribute to improved barrier maintenance or robustness”.
